# PubChem BioAssay AID2528 (National Center for Advancing Translational Sciences (NCATS), 2010)
# Protein sequences, listed by entry. Tags and fused reporters are not part of them. Lines headed by an entry give the natural chain unless they say otherwise; changes in a name come on top.
# UniProt P54132: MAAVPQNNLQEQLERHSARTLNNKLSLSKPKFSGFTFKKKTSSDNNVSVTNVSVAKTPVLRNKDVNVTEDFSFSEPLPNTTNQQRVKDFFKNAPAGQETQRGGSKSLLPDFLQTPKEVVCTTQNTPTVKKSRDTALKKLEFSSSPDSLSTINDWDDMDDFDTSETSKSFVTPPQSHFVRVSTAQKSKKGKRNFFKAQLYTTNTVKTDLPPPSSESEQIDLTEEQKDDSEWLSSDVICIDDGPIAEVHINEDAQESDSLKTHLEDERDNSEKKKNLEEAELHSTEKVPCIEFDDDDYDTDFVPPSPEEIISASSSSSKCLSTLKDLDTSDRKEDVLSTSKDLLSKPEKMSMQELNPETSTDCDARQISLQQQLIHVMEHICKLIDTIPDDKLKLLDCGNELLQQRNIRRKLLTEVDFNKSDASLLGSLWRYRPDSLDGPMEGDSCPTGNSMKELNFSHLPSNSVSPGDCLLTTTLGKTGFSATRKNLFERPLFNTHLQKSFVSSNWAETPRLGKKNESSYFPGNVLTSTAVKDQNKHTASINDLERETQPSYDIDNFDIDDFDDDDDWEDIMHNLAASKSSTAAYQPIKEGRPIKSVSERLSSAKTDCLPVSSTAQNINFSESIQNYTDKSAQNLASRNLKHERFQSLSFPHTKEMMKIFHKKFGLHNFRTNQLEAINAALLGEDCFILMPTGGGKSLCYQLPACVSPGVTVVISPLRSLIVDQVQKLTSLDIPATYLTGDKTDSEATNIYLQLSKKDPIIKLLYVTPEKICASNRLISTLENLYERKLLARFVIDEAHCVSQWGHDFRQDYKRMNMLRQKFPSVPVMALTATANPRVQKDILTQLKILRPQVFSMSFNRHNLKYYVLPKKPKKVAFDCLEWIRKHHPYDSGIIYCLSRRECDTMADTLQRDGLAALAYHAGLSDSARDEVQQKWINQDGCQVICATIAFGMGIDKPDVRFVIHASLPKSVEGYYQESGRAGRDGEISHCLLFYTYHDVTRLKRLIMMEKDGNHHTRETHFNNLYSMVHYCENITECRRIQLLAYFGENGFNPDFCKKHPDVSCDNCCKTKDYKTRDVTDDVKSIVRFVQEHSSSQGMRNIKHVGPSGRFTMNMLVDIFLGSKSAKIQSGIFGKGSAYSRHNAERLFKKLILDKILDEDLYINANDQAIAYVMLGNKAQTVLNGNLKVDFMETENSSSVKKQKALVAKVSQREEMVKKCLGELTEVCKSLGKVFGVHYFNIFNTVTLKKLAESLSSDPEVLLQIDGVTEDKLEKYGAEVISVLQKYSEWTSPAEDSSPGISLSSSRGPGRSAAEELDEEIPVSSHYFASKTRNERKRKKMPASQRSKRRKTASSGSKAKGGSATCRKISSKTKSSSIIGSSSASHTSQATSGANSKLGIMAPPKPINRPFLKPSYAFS
# Where “and” joins values, the source holds several entries; their conditions need not be identical. Equal values may be shown once. The entries are a selection whose mix differs from that of the whole data set. Calls of active or inactive are those of the source. The call rests on the fitted dose curve; in most records, active means well fitted inhibition curve with a large enough effect; inconclusive means small, poorly fitted or top-dose-only effect; inactive means flat fitted curve, though single readings scatter.
# Biological target: RecQ-like DNA helicase BLM (Homo sapiens) (UniProt P54132)
# Assay: qHTS Assay for Inhibitors of Bloom's syndrome helicase (BLM);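 further: plate controls were vehicle for no effect and no enzyme for full effect; nearly all actives have a fitted effect of over 35% in size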
# Conditions: recombinant BLM DNA unwinding, fluorescence dequenching; at 56.1 µM (top of the series) unless noted
row,SMILES,"activity change, negative = inhibition"
1,Cc1ccc(OP(=O)(Nc2nccs2)Oc2ccc(C)cc2)cc1,inactive: -3.21%
2,CN1CCCC(OC(=O)C(c2ccccc2)c2ccccc2)C1 (configuration not stated),inactive: 2.94%
3,Clc1ccc(Cl)c(NC2=NCC(CBr)S2)c1 (configuration not stated),inactive: -18.6%
4,NC(=O)c1cc([N+](=O)[O-])cc([N+](=O)[O-])c1N,inactive: -11.1%
5,Cc1ccc(N/C(=N/P(=O)(N2CCOCC2)N2CCOCC2)N2CCOCC2)cc1,inactive: -0.565%
6,Nc1cc(N)c2nonc2c1[N+](=O)[O-],inactive: -4.41%
7,CC(C)CC(=O)NC(Sc1ccc(Cl)cc1)C(Cl)(Cl)Cl (configuration not stated),inactive: -4.56%
8,Oc1ccccc1CNc1ccccn1,inactive: 1.04%
9,O=C(NC(Sc1ccncn1)C(Cl)(Cl)Cl)c1ccccc1 (configuration not stated),inactive: 1.47%
10,Cc1c2non([O-])c-2c(C)[n+](=O)[n+]1[O-],inactive: -6.08%
11,CC(C)(C)C(=O)NC(Sc1ccccc1)C(Cl)(Cl)Cl (configuration not stated),inactive: -3.42%
12,O=P1(Nc2nc3ccc(Cl)cc3s2)COc2ccccc2O1 (configuration not stated),inactive: 0.605%
13,CCOc1ccc(C2=NCC(CBr)S2)cc1 (configuration not stated),inactive: -3.2%
14,CC(=O)Nc1ccc([As](=O)(O)O)c(O)c1,inactive: -8.75%
15,CC(=O)Nc1ccc(Oc2c([N+](=O)[O-])cc([N+](=O)[O-])cc2[N+](=O)[O-])cc1,inactive: -11.8%
16,CC(=O)c1ccc(N2CC2c2ccncc2)cc1 (configuration not stated),inactive: 0.231%
17,C[C@H]1OP(=O)(Oc2ccccc2)C[C@@H]2O[C@@H]21 (some centres not stated),inactive: 0.981%
18,C[C@@H]1C=CCP(=O)(Oc2ccccc2)O1 (some centres not stated),inactive: 2.37%
19,O=C(NC1CCS(=O)(=O)C1)NP(=S)(Oc1ccccc1)Oc1ccccc1 (configuration not stated),inactive: -3.71%

row,SMILES,"activity change, negative = inhibition"
1,CCNC(=S)/N=C(\N)N[N+](=O)[O-],inactive: -3.56%
2,c1ccc(-c2nn[nH]n2)c(-c2nn[nH]n2)c1,inactive: -6.87%
3,CCOC(=O)NC(Sc1ccccc1)C(Cl)(Cl)Cl (configuration not stated),inactive: -3.96%
4,Cc1ccc(NP(=O)(Oc2cccc(C)c2)Oc2cccc(C)c2)nc1,inactive: -1.46%
5,Cc1ccccc1OP(=O)(Nc1ccccn1)Oc1ccccc1C,inactive: -2.37%
6,O=c1c2cc([N+](=O)[O-])ccc2[nH]c2c([N+](=O)[O-])cc([N+](=O)[O-])cc12,inactive: -1.62%
7,CN(C)C(=O)Oc1noc2ccccc12,inactive: -2.78%
8,COC(=O)c1cc2c(s1)N=C(c1ccccc1)N(C)P2(=O)N1CCOCC1 (configuration not stated),inactive: -3.98%
9,Cc1ccc(OP(=O)(Nc2ccccn2)Oc2ccc(C)cc2)cc1,inactive: -7.54%
10,CC(=O)NC(SC(=S)N(CC(C)C)CC(C)C)C(Cl)(Cl)Cl (configuration not stated),inactive: 0.0335%
11,O=C(OC1CN2CCC1CC2)c1ccccc1 (configuration not stated),inactive: 2.01% and inactive: 2.99%
12,CCC(=O)N1C2C3N(C(=O)CC)C1C1N(C(=O)CC)C(C(N1C(=O)CC)N3C(=O)CC)N2C(=O)CC,inactive: -0.659%
13,O=P(Nc1nc2ccccc2s1)(c1ccccc1)c1ccccc1,inactive: -2.9%
14,C[C@H]1OP(=O)(Oc2ccccc2)[C@H](O)[C@H](O)[C@H]1N=[N+]=[N-] (some centres not stated),inactive: -0.663%
15,CN(C)C1(CNC(=O)c2ccc(Cl)c(S(N)(=O)=O)c2)CCCCC1,inactive: -1.99%
16,O=P(Nc1ccccn1)(c1ccc(Br)cc1)c1ccc(Br)cc1,inactive: -10.3%
17,C(Cc1nn[nH]n1)Cc1nn[nH]n1,inactive: 1.17%
18,Nc1ccc([As](=O)(O)c2ccc([N+](=O)[O-])cc2)cc1,inactive: -7.36%
19,O=C(OC1CN2CCC1CC2)c1cccc(Cl)c1 (configuration not stated),inactive: 0.791%

row,SMILES,"activity change, negative = inhibition"
1,O=[N+]([O-])c1ncn(CCn2cnc([N+](=O)[O-])n2)n1,inactive: -7.01%
2,CC(=O)NC(SC(=S)N(C)C)C(Cl)(Cl)Cl (configuration not stated),inactive: -7.89%
3,O=[N+]([O-])c1ccc(O)c(/C=N/Nc2ccc([N+](=O)[O-])cc2[N+](=O)[O-])c1,inactive: -9.15%
4,O=[As](O)(c1ccccc1)c1ccc(O)cc1,inactive: -2.69%
5,CCC(C)(OOC(C)(C)C)OOC(C)(C)C,inactive: 2.78%
6,c1nnnn1CCn1cnnn1,inactive: -0.125%
7,O=P(Nc1nccs1)(c1ccccc1)c1ccccc1,inactive: -1.23%
8,CC(C)C(=O)NC(Sc1ccccc1)C(Cl)(Cl)Cl (configuration not stated),inactive: 3.12%
9,Clc1n[nH]nc1-c1nn[nH][15n]1,inactive: 1.88%
10,CC(C)(C)C(=O)NC(Sc1ncccn1)C(Cl)(Cl)Cl (configuration not stated),inactive: -0.197%
11,CCOP(=O)(Nc1ccc(C)cn1)OCC,inactive: -1.13%
12,CCC1=CC2Cc3nc4ccc(Cl)cc4c(N)c3C(C1)C2 (configuration not stated),inactive: 6.01%
13,O=P1(Nc2ccccn2)COc2ccccc2OC1,inactive: -1.15%
14,CCOP(=O)(NC(=NC(C)c1ccccc1)NC(C)c1ccccc1)OCC (configuration not stated),inactive: -4.42%
15,O=[As](O)(c1ccccc1Br)c1ccccc1Br,inactive: -5.46%
16,CN(C(=O)Cc1ccc(Cl)c(Cl)c1)[C@@H]1CCCC[C@H]1N1CCCC1,inactive: -6.65%
17,CC(C)/C=N\N=C(\N)N[N+](=O)[O-],inactive: -3.88%
18,O=C(/C=C/c1ccccc1)OC1CN2CCC1CC2 (configuration not stated),inactive: 12%
19,CN(C)C1(CNC(=O)c2ccc(S(C)(=O)=O)cc2)CCCCC1,inactive: 0.606%
